Values quoted from earlier work in patent US5624668A, “Iron dextran formulations” (Luitpold Pharmaceuticals, Inc., priority 1995, dated 1997).

Conditions: in vivo; cited from earlier work

Substance: iron dextran
- absorption of most of the remaining iron: 3-4 weeks
- absorption of the major portion of an intramuscular injection: ≤ 72 h
- bioavailability of the dose: almost the entire dose of iron dextran remains bioavailable
- half life: 5 to more than 20
- iron lost via the urinary or alimentary pathways: Negligible amounts
- renal excretion: not excreted by the kidneys
- staining from inadvertent deposition in subcutaneous and cutaneous tissues: usually resolves or fades within several weeks or months
